The results in this text go back to patent publication US9676793B2, “Co-crystals of 5-amino-2-oxothiazolo[4,5-d]pyrimidin-3(2H)-yl-5-hydroxymethyl tetrahydrofuran-3-yl acetate and methods for preparing and using the same” (Hoffmann-La Roche Inc., priority 2014, dated 2017).

A short description of the data set: BCS classification of co-crystals (aqueous solubility).

For the substance Fumaric acid, where the note is “Table 1”, the “BCS Class” value worked out at 1. Also, the “BCS Class (Stahl et al)” value (Table 10) was determined as 1.
